Patent publication US11161835B2, “Compounds and their use for reducing uric acid levels” (Acquist LLC, priority 2016, dated 2021)

By UniProt entry, the sequences of proteins in these tests, tags left out. Where a name states a change or a piece, a line headed by the entry shows the natural chain unless it says otherwise.
UniProt Q96S37: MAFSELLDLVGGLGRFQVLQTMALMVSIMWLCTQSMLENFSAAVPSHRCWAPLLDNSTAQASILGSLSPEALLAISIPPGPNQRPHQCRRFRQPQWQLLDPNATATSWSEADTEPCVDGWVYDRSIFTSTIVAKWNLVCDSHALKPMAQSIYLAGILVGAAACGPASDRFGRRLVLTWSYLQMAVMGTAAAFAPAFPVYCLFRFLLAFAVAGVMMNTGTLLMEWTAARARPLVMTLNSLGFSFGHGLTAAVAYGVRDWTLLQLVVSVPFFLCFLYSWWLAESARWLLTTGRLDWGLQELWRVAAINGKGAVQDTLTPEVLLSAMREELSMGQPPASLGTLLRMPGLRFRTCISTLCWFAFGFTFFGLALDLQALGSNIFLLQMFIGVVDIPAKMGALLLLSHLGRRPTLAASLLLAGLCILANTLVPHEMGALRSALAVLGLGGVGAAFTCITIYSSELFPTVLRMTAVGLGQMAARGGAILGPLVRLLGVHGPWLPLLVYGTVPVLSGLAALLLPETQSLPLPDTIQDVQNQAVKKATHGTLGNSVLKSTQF

Biological target: URAT1 (SLC22A12) (Homo sapiens (Human), UniProt Q96S37)
Experiment: URAT1 (SLC22A12) cellular uptake assay, 3H-orotate transport in stably transfected URAT-1/CHO cells
Conditions: for URAT1 inhibition compared with lesinurad: comparison in words; for URAT1 inhibition (in words): bifunctional compounds

| SMILES | URAT1 inhibition compared with lesinurad | URAT1 inhibition (in words) |
| --- | --- | --- |
| O=C(Nc1ccc(-c2nn[nH]c2-c2ccccc2)cc1)c1c(O)[nH]c(=O)[nH]c1=O [Formula (Ic), 6-hydroxy-2,4-dioxo-N-(4-(4-phenyl-1H-1,2,3-triazol-5-yl)phenyl)-1,2,3,4-tetrahydropyrimidine-5-carboxamide] | more potent inhibitors of URAT1 than lesinurad |  |
| O=C(Nc1ccc(-c2c[nH]nn2)c(C(F)(F)F)c1)c1c(O)[nH]c(=O)[nH]c1=O [Formula (Ig), N-(4-(1H-1,2,3-triazol-5-yl)-3-(trifluoromethyl)phenyl)-6-hydroxy-2,4-dioxo-1,2,3,4-tetrahydropyrimidine-5-carboxamide] | more potent inhibitors of URAT1 than lesinurad | potent inhibitors of URAT1 |
| O=C(Nc1ccc(-c2c[nH]nn2)cc1C(F)(F)F)c1c(O)[nH]c(=O)[nH]c1=O [Formula (Ih), N-(4-(1H-1,2,3-triazol-5-yl)-2-(trifluoromethyl)phenyl)-6-hydroxy-2,4-dioxo-1,2,3,4-tetrahydropyrimidine-5-carboxamide] | more potent inhibitors of URAT1 than lesinurad | potent inhibitors of URAT1 |
| O=C(Nc1ccc(-c2cc(O)n[nH]2)cc1)c1c(O)[nH]c(=O)[nH]c1=O [Formula (Ii), 6-hydroxy-N-(4-(3-hydroxy-1H-pyrazol-5-yl)phenyl)-2,4-dioxo-1,2,3,4-tetrahydropyrimidine-5-carboxamide] |  | potent inhibitors of URAT1 |
